Experimental data taken from PMC5727127, “H3K14ac is linked to methylation of H3K9 by the triple Tudor domain of SETDB1” (Nature Communications, 2017).

Biological target: T1, SETDB1 3TD, wildtype (Homo sapiens, UniProt Q15047)
T1 construct: cloned into the pET28a-MHL (residues 190–410), pGEX6P2, and pGEX-4T-1 (residues 197–403) vectors; 6×His; made in house; host or cells: E. coli BL21 derivative (SGC) with pRARE
Assay: NMR chemical shift perturbation binding to 3TD
Settings: 15N HSQC, 25 °C, pH 7.0, 150 mM NaCl
Procedure: NMR experiments were collected on a Bruker Avance 500-MHz spectrometer equipped with a cryogenic probe. Chemical shift perturbation experiments were carried out using uniformly ^15N-labeled wildtype 3TD protein in 20 mM Tris/HCl pH 7.0 and 150 mM NaCl. ^1H, ^15N HSQC spectra were recorded at 25 °C in the presence of increasing concentrations of histone tail peptides. K d values were calculated by a nonlinear least-squares analysis in Kaleidagraph using the equation Δδ=ΔδmaxcL+cP+Kd-cL+cP+Kd^2-4cLcP∕2cP, where c L is the concentration of the peptide, c P is the concentration of the protein, Δδ is the observed normalized chemical shift change, and Δδ max is the normalized chemical shift change at saturation, calculated as Δδ=ΔδH^2+ΔδN∕5^2, where δ is the chemical shift in p.p.m.
Supplementary Figure 1: Peptide binding of 3TD. (a) Titration of 3TD binding to peptide arrays. Note the specific binding to H3K9me1/2/3-K14ac double modified […]
concentration (100 nM). (b) ITC analysis of 3TD binding to single modified H3 tail […]
peptides. (c) NMR chemical shift perturbation experiments carried out to detect potentially weak binding of 3TD to H3K14ac, H3K9me3 and unmodified H3. Weak binding of H3K14ac could be detected and the […]
H3 was observed. Panel a relates to Fig. 1, panels b and c to Fig. 2.
(1 picture or pasted object on this page, not shown here)

Compound: C[C@H](NC(=O)[C@@H](NC(=O)[C@H](CCC(N)=O)NC(=O)[C@@H](N)CCCCN)[C@@H](C)O)C(=O)N[C@@H](CCCNC(=N)N)C(=O)N[C@@H](CCCCN)C(=O)N[C@@H](CO)C(=O)N[C@H](C(=O)NCC(=O)NCC(=O)N[C@@H](CCCCN)C(=O)N[C@@H](C)C(=O)N1CCC[C@H]1C(=O)N[C@@H](CCCNC(=N)N)C(=O)N[C@@H](CCCCN)C(=O)N[C@@H](CCC(N)=O)C(=O)O)[C@@H](C)O [H3(4–19) unmodified]
- binding detected by NMR: no detectable binding
